The target of assay [1] is T1, Epidermal growth factor receptor (Homo sapiens, UniProt P00533). The experiment in a line: Inhibition of epidermal growth factor receptor (EGFR) phosphorylation of the exogenous substrate poly(Glu6, Ala3,Tyr) (polyGAT).
Assay [2] concerns the target T1, Epidermal growth factor receptor. The assay can be described thus: Inhibitory activity of compound against Epidermal growth factor receptor autophosphorylation.

Chains of the proteins cited; added tags and fusions are not shown.
UniProt P00533, whole entry: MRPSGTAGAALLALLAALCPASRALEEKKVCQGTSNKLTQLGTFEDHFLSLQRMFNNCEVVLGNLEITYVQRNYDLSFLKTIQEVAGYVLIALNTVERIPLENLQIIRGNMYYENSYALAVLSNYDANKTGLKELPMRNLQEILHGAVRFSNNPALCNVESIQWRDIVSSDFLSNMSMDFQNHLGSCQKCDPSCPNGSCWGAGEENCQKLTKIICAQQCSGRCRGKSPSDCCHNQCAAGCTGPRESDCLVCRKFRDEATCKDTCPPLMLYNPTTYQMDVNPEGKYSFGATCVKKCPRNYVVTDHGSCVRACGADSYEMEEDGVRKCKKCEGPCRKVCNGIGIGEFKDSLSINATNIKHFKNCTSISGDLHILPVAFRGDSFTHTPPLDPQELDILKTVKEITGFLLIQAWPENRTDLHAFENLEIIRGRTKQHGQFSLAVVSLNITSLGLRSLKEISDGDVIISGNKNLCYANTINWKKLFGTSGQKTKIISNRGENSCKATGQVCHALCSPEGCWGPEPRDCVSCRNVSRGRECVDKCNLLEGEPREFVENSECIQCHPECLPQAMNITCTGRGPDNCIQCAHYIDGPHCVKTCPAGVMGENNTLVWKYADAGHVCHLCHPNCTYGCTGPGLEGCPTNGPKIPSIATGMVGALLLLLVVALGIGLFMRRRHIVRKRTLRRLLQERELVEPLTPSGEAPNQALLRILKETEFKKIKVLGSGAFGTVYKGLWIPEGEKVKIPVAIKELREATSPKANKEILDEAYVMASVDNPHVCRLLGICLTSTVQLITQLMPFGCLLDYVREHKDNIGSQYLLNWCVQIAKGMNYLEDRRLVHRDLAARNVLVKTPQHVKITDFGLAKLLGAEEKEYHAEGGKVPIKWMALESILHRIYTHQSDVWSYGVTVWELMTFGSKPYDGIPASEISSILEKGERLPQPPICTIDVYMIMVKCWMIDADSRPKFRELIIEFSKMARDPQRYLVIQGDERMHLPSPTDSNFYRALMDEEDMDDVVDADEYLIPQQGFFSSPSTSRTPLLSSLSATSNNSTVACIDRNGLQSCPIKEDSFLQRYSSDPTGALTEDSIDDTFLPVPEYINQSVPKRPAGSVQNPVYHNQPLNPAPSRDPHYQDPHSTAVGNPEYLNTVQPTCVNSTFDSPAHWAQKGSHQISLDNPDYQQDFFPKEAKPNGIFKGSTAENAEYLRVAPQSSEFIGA

As usually defined, the IC50 is the concentration needed to halve the response being measured. Low readings indicate inhibition by little substance, high ones a need for much substance. In the case of `N#C/C(=C\c1ccc(O)c(O)c1)C(=O)NCCCNC(=O)/C(C#N)=C/c1ccc(O)c(O)c1`, the values for the IC50 in assay [1] and in assay [2] were 0.4 µM and 3.3 µM, respectively.

The values above are taken from ChEMBL document CHEMBL1129590, “Tyrphostins. 6. Dimeric benzylidenemalononitrile tyrophostins: potent inhibitors of EGF receptor tyrosine kinase in vitro” (J Med Chem, 1996).
